The chains behind the UniProt entries cited, without tags or fusion partners.
UniProt P20459, whole entry, chain 1 of 3: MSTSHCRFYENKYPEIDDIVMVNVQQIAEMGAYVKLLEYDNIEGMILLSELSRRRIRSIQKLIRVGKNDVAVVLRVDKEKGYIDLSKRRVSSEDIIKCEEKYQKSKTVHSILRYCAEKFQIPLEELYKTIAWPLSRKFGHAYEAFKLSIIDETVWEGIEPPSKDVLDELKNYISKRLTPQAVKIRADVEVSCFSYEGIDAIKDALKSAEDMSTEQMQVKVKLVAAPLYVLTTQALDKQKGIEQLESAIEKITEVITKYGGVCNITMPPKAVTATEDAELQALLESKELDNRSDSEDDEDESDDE

In PMC5153249:

Tests used:
[1] = biological target: ternary complex (eIF2•GDPNP•[35S]-Met-tRNAi) (yeast) (UniProt P20459); assay: native gel or EMSA; as a3 but with 500 nM eIF3 (WT or the variant named in the row's quantity), no mRNA; apparent KD, Langmuir fit
[2] = biological target: ternary complex (eIF2•GDPNP•[35S]-Met-tRNAi) (yeast) (UniProt P20459); assay: native gel or EMSA; 40S subunits (10-320 nM) titrated against TC (200 nM eIF2, 1 mM GDPNP, 1 nM [35S]-Met-tRNAi) with 1 µM eIF1 and 1 µM eIF1A, no mRNA, no eIF3; 1X Recon buffer, 26 °C, 2 h; apparent KD, Langmuir fit
[3] = system: eIF3 (a H725P) (Saccharomyces cerevisiae); assay: EMSA; details: mean of 2; Met-charged tRNAi; 30 mM HEPES-KOH pH 7.4, 100 mM KOAc, 3 mM Mg(OAc)2, 2 mM DTT, 1 mM GDPNP, 26 C, 2 h; native 4% THEM gel
[4] = system: eIF3 (a R731I) (Saccharomyces cerevisiae); assay: EMSA; details: mean of 2; Met-charged tRNAi; 30 mM HEPES-KOH pH 7.4, 100 mM KOAc, 3 mM Mg(OAc)2, 2 mM DTT, 1 mM GDPNP, 26 C, 2 h; native 4% THEM gel
[5] = system: eIF3 (b prt1-1) (Saccharomyces cerevisiae); assay: EMSA; details: mean of 2, Met-charged tRNAi, 30 mM HEPES-KOH pH 7.4, 100 mM KOAc, 3 mM Mg(OAc)2, 2 mM DTT, 1 mM GDPNP, 26 C, 2 h, native 4% THEM gel
[6] = system: eIF3 (b rnp1) (Saccharomyces cerevisiae); assay: EMSA; details: Met-charged tRNAi, 30 mM HEPES-KOH pH 7.4, 100 mM KOAc, 3 mM Mg(OAc)2, 2 mM DTT, 1 mM GDPNP, 26 C, 2 h, native 4% THEM gel
[7] = system: eIF3 (c Box12-SPW) (Saccharomyces cerevisiae); assay: EMSA; details: mean of 2; Met-charged tRNAi; uncapped mRNA; 30 mM HEPES-KOH pH 7.4, 100 mM KOAc, 3 mM Mg(OAc)2, 2 mM DTT, 1 mM GDPNP, 26 C, 2 h; native 4% THEM gel
[8] = system: yeast 43S PIC: 40S+eIF1+eIF1A+eIF2 (Met-tRNAi TC); for mRNA recruitment also eIF5, eIF4A, eIF4B, eIF4E-eIF4G (Saccharomyces cerevisiae); assay: EMSA; details: Met-charged; 30 mM HEPES-KOH pH 7.4, 100 mM KOAc, 3 mM Mg(OAc)2, 2 mM DTT, 1 mM GDPNP, 26 C, 2 h; native 4% THEM gel

## 40S ribosomal subunit with eIF1 and eIF1A (40S•eIF1•eIF1A) (from UniProt P32911 1-108; P38912 1-153) (complex)
[1]
  KD in the presence of WT eIF3: 15 nM
  fold weakening of KD in the presence of prt1-1 eIF3 against WT eIF3: 3 fold
  fold weakening of KD in the presence of rnp1 eIF3 against WT eIF3: 2 fold
  fold weakening of KD in the presence of the a/b/c sub-complex against WT eIF3: 3 fold
[2]
  Kd: 104 nM

## 43S PIC (40S rRNA + Met-tRNAi)
[3]
  Kd: 79 nM
[4]
  Kd: 113 nM
[5]
  Kd: 83 nM
[6]; mean of 3
  Kd: 110 nM

## 48S PIC (40S rRNA + Met-tRNAi + AUG model mRNA)
[5]; uncapped mRNA
  Kd: 104 nM
[6]; mean of 2, uncapped mRNA
  Kd: 158 nM
[7]
  Kd: 69 nM

## initiator tRNAiMet
[8]
  Kd: 104 nM
